Assay results reported in ChEMBL document CHEMBL1149424, “Synthesis of functionalized 1,8-naphthyridinones and their evaluation as novel, orally active CB1 receptor inverse agonists” (Bioorg Med Chem Lett, 2006).

By UniProt entry, the sequences of proteins in these tests, tags left out.
UniProt P21554, whole entry: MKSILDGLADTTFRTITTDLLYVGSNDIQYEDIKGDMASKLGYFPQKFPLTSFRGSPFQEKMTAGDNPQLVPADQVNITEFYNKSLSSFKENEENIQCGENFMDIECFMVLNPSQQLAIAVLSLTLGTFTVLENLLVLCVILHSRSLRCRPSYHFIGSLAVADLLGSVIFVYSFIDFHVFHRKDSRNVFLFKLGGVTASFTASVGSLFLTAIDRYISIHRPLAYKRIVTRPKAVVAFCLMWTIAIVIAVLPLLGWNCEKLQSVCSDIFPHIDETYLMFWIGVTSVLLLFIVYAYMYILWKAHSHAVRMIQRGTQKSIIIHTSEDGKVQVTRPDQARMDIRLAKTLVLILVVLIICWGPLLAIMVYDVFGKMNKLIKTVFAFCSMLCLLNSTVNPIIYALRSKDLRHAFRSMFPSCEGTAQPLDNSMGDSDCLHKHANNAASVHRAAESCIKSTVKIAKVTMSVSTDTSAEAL

Target: Cannabinoid receptor 1 (Homo sapiens, UniProt P21554)
Test: Binding affinity at the CB1 receptor

IC50: 7.5 nM
SMILES: CC(=O)Nc1c(C(C)=O)c(=O)n(C)c2nc(-c3ccc(Cl)cc3Cl)c(-c3ccc(Cl)cc3)cc12 [NAPHTHYRIDINONE]
